Assays:
[1] = tested on: Candida albicans SLU-2G amphotericin B-resistant strain; assay: Radial diffusion assay (Example 3), amphotericin B-resistant strain; type: cell-based; conditions: FIG. 2B
[2] = tested on: mouse RAW 264.7 cells incubated with E. coli O113 LPS; conditions: RAW 264.7 cells with E. coli O113 LPS; concentration reversing LPS growth inhibition by 50%
mouse RAW 264.7 cells = conditions: RAW 264.7 cell growth inhibited by 50%
Candida albicans SLU-1 = assay: Radial diffusion assay (Example 3), wild type strain; type: cell-based; conditions: FIG. 2A
Protocol: For the radial diffusion assays, Candida albicans SLU-1 were grown as described above and SLU-2G were grown overnight in Sabouraud dextrose broth supplemented with 10 μg/mL amphotericin B and 5 μg/mL ceftriaxone at 37° C. Cultures were diluted 1:25 into fresh, unsupplemented broth and allowed to grow for 5 hours at 37° C. Cells were pelleted at 1,500×g for 5 minutes at 4° C. Supernatant was decanted and replaced with 5 mL of 10 mM phosphate buffer, pH 7.4. After centrifugation the cell pellets were resuspended with 5 mL phosphate buffer for an OD570 determination. One OD570 for SLU-1 cells was 3×10^7 CFU/mL and for SLU-2G cells was 5×10^6 CFU/mL. […]
Peptides were two-fold serially diluted with DPBS from a starting concentration of approximately 1 mg/mL. […] Plates were stained with a dilute Coomassie solution, inhibition zones were measured with calipers and net areas were calculated, then converted to pmol values by PROBIT analysis. […] The pmol for a 30 mm^2 zone of inhibition were calculated to be: for XMP.13, 689 pmol against SLU-1 and 129 pmol against SLU-2G; for XMP.37, 231 pmol against SLU-1 and 75 pmol against SLU-2G; for XMP.97, 670 pmol against SLU-1 and 161 pmol against SLU-2G; for XMP.127, 935 pmol against SLU-1 and 116 pmol against SLU-2G; for amphotericin B, 36 pmol against SLU-1 and >541 pmol for SLU-2G; and for nysttin, 98 pmol against SLU-1 and >1,215 pmol against SLU-2G.

Candida albicans = assay: Radial diffusion assay, Candida species (Table 2); type: cell-based; conditions: higher effective concentration of agarose than Table 1
[3] = tested on: Candida albicans SLU-1 strain; assay: Serum stability, anti-fungal activity after serum incubation by radial diffusion bioassay; type: in vitro ADME, rat or human serum
How it was run: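 Peptide at 1 mg/mL mixed with an equal volume of rat or human serum and held at 37° C. Samples taken at 0, 1, 2 and 4 h, extracted on C-18 solid phase, then analysed by HPLC, N-terminal sequencing and ESI/MS. Recovered peptides tested against C. albicans SLU-1 by radial diffusion.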

SMILES | pmol for a 30 mm^2 zone of inhibition against SLU-2G [1] [pmol] | In Vitro LPS Neutralization EC50 [2] [µg/mL] | IC50 (toxicity/growth inhibition of peptide) (mouse RAW 264.7 cells) | pmol for a 30 mm^2 zone of inhibition against SLU-1 (Candida albicans SLU-1) [pmol] | Anti-fungal activity: pmol/30 mm^2 zone, Candida albicans (Candida albicans) | Activity in Serum t ½ (hr.) [3]
CC[C@H](C)[C@H](NC(=O)[C@H](CC(C)C)NC(=O)[C@H](Cc1c[nH]c2ccccc12)NC(=O)[C@H](CCCCN)NC(=O)[C@@H](NC(=O)[C@H](CCCCN)NC(=O)[C@H](CO)NC(=O)[C@@H](N)CCCCN)C(C)C)C(=O)N[C@@H](CCC(N)=O)C(=O)N[C@@H](CC(C)C)C(=O)N[C@@H](Cc1ccccc1)C(=O)N[C@@H](Cc1c[nH]cn1)C(=O)N[C@@H](CCCCN)C(=O)N[C@@H](CCCCN)C(N)=O [XMP.97] | 161 | 3.69 ± 0.46 | >25 µg/mL | 670 | 2,019 pmol/30 mm^2 zone | 
CC[C@H](C)[C@H](NC(=O)[C@H](CC(C)C)NC(=O)[C@H](Cc1ccccc1)NC(=O)CNC(=O)[C@@H](NC(=O)[C@H](CCCCN)NC(=O)[C@H](CO)NC(=O)[C@@H](N)CCCCN)C(C)C)C(=O)N[C@@H](CCC(N)=O)C(=O)N[C@@H](CC(C)C)C(=O)N[C@@H](Cc1ccccc1)C(=O)N[C@@H](Cc1c[nH]cn1)C(=O)N[C@@H](CCCCN)C(=O)N[C@@H](CCCCN)C(N)=O [XMP.127] | 116 | 10.77 ± 1.34 | NA (NA for IC50 means no evidence of decreased RAW cell growth at up to 50 μg/ml) | 935 | 2,144 pmol/30 mm^2 zone | 
CC[C@H](C)[C@H](NC(=O)[C@H](CC(C)C)NC(=O)[C@H](Cc1c[nH]c2ccccc12)NC(=O)[C@H](CCCCN)NC(=O)[C@@H](N)CCCCN)C(=O)N[C@@H](CCC(N)=O)C(=O)N[C@@H](CC(C)C)C(=O)N[C@@H](CCCCN)C(=O)N[C@@H](CCCCN)C(N)=O [XMP.327] |  | 11.92 ± 0.09 | NA (NA for IC50 means no evidence of decreased RAW cell growth at up to 50 μg/ml) |  | 5,108 pmol/30 mm^2 zone | 
CC[C@H](C)[C@H](NC(=O)[C@H](CC(C)C)NC(=O)[C@H](Cc1c[nH]c2ccccc12)NC(=O)[C@H](CCCCN)NC(=O)[C@H](CCCCN)NC(C)=O)C(=O)N[C@@H](CCC(N)=O)C(=O)N[C@@H](CC(C)C)C(=O)N[C@@H](CCCCN)C(=O)N[C@@H](CCCCN)C(N)=O [XMP.331] |  | 14.11 ± 0.35 | NA (NA for IC50 means no evidence of decreased RAW cell growth at up to 50 μg/ml) |  | b (No detectable activity up to 5 μg/well) | inactive
CC[C@H](C)[C@H](NC(=O)[C@H](CC(C)C)NC(=O)[C@H](Cc1c[nH]c2ccccc12)NC(=O)[C@@H](CCCCN)NC(=O)[C@H](N)CCCCN)C(=O)N[C@@H](CCC(N)=O)C(=O)N[C@@H](CC(C)C)C(=O)N[C@H](CCCCN)C(=O)N[C@H](CCCCN)C(N)=O [XMP.342] |  | >50 |  |  |  | indefinite
CC[C@@H](C)[C@@H](NC(=O)[C@@H](CCC(N)=O)NC(=O)[C@@H](CC(C)C)NC(=O)[C@@H](Cc1ccccc1)NC(=O)[C@@H](Cc1c[nH]cn1)NC(=O)[C@@H](CCCCN)NC(=O)[C@H](N)CCCCN)C(=O)N[C@H](CC(C)C)C(=O)N[C@H](Cc1c[nH]c2ccccc12)C(=O)N[C@H](CCCCN)C(N)=O [XMP.367] |  |  |  |  |  | indefinite

Reference: US6664231B1, “Anti-fungal peptides” (priority 1993, dated 2003)
